Results: patent US20250228858A1, “ANTI-CANCER COMBINATION THERAPY” (Boehringer Ingelheim International GmbH, priority 2023, published 2025)

Tests used:
[1] = test system: HER2-overexpressing human breast cancer cell line SUM190PT; assay type: in vivo
Description: The study is performed in human breast cancer cell line SUM190PT grown as subcutaneous xenografts in NMRI-Foxn1^nu mice. Day 1 was the first day, day 21 the last day of treatment and final day of analysis.
Cells are obtained and cultured as described in Example 8 (see paragraph 8.1.2).
Capecitabine can be purchased from Roche Pharma AG. Capecitabine is suspended with 0.5% Natrosol and administered intragastrally with a volume of 10 ml/kg.
Tumor volumes and side effects are monitored as described in Example 1 (see paragraph 1.1.6), except that control animals are sacrificed when the median tumor volume of the group reaches a size of approximately 540 mm^3.
(§1) The statistical evaluation of the tumor volume and the body weight is conducted on day 21 (last day of the study). Apart from this, statistical analysis was performed as described in Example 1 (see paragraph 1.1.7), with no evaluation of tumor growth after stop of treatment.

[2] = test system: HER2-overexpressing human NSCLC cell line Calu-3; assay: Calu-3 subcutaneous xenograft, zongertinib with trastuzumab and/or pertuzumab; assay type: in vivo, CB-17/Icr-Prkdc^scid mice; conditions: day 42; tumors regressed/total (partial response); zongertinib 20 mg/kg qdx42 p.o.; trastuzumab 20 mg/kg q7dx6 i.p.; pertuzumab 20 mg/kg q7dx6 i.p.; alone or combined
Description: The study is performed in human NSCLC cell line Calu-3 grown as subcutaneous xenografts in CB-17/Icr-Prkdc^scid mice.
Calu-3 is a HER2-overexpressing human NSCLC cell line that can be obtained from ATCC (lot 614492062). […] Cultures are split once weekly with a ratio of 1:1.5-1:2.
(§2) Mice in the control group are treated with vehicle, i.e.: • (i) 0.5% Natrosol, administered once daily for the duration of the treatment intragastrally by gavage needle with a volume of 10 ml/kg body weight; and • (ii) saline (0.9%), administered once every week intraperitoneally with a volume of 10 ml/kg.

[3] = test system: HER2-overexpressing human gastric cancer cell line NCI-N87; assay: NCI-N87 subcutaneous xenograft, zongertinib with T-DXd; assay type: in vivo, NMRI-Foxn1^nu mice
Description: The study is performed in human gastric cancer cell line NCI-N87 grown as subcutaneous xenografts in NMRI-Foxn1^nu mice.
NCI-N87 is a HER2-overexpressing human gastric cancer cell line that can be obtained from the American Type Culture Collection (ATCC #CRL-5822). Cells are cultured in T175 tissue culture flasks at 37° C. and 5% CO2. The medium used is RPMI 1640 (ATCC #30-2001) supplemented with 10% fetal calf serum (FCS) (Thermo Scientific #SH 30084.03).
Mice are 6- to 10-week-old female NMRI-Foxn1^nu purchased from Taconic, Denmark. After arrival at the animal facility, mice are allowed to adjust to conditions at least for 5 days before they are used for the experiment. They are housed in Macrolon® type III cages in groups of 8 to 10 under pathogen-free, controlled and standardized conditions at 21.5±1.5° C. temperature, 55±10% humidity and 12-h light-dark cycle. Standardized diet (PROVIMI KLIBA) and autoclaved tap water are provided ad libitum. Subcutaneous microchips implanted under isoflurane anaesthesia are used to identify each mouse. […]
Tumor volumes are measured three times a week with a caliper. The volume of each tumor [in mm^3] is calculated according to the formula: […]
To monitor side effects of treatment, mice are inspected daily for abnormalities and body weight is determined three times a week. […]

parental NCI-N87 cells = assay: Proliferation assay (CellTiter Glo), parental NCI-N87 cells; assay type: cell-based, human; conditions: 5 days of incubation, in vitro
Description: To generate T-DXd-resistant models, the NCI-N87 model is used and tumor-bearing mice are treated with three cycles of T-DXd, tumors that regrow are harvested and then tumor cells are cultivated in vitro, as shown in FIG. 17.
(§3) Per well, 1000 cells are seeded in 40 μL medium in white, sterile 384-well culture plates (TC-treated; PerkinElmer #6007680) and incubated overnight in a humidified incubator at 37° C. and 5% CO2. 0.1% DMSO-control or serial compound dilution in triplicates are added. T-DXd is diluted in 0.3% Tween solution and added to the cells. After 5 days of incubation with test compounds, the cells plates are measured upon addition of CellTiter Glo Luminescent Cell Viability Reagent (Promega, #G9243) to assess cell viability. The plates are placed on a shaker for five minutes and additionally incubated for 10 minutes at room temperature to induce cell lysis and to stabilize the luminescent signal. The luminescent signal of each well is measured in an EnSpire Multilabel Plate Reader 658 (PerkinElmer). The dose response curves are fit and visualized using Boehringer Ingelheim's proprietary software MegaLab and PRISM (GraphPad Inc.).

[4] = test system: T-DXd-resistant NCI-N87 cells; assay: Proliferation assay (CellTiter Glo), T-DXd resistant NCI-N87 cells; assay type: cell-based, human; conditions: 5 days of incubation, in vitro
Description: as §3, with “T-DXd is diluted in 0.3% Tween solution and added to the cells.” left out

[5] = test system: HER2-overexpressing human breast cancer cell line BT-474; assay type: in vivo; conditions: alone or combined
Description: The study is performed in human breast cancer cell line BT-474 grown as orthotopic xenografts in NMRI-Foxn1^nu mice. Day 1 was the first day, day 42 the last day of treatment and final day of analysis.
BT-474 is a HER2-overexpressing human breast cancer cell line that can be obtained from ATCC (lot #61136823). Cells are cultured in T75, T175 and 5-Layer tissue culture flasks at 37° C. and 5% CO2. The medium used is Hybri-Care (ATCC, 46-X) supplemented with 1.5 g/L sodium bicarbonate (GIBCO, Ref.: 25080-060) and 10% FCS (Cytiva HyClone Characterized FBS, SH30084.03n). Cultures are split twice weekly with a ratio of 1:2-1:3.
To establish subcutaneous tumors, BT-474 cells are harvested by centrifugation, washed and resuspended in PBS+5% FCS at 5×10^7 cells/ml. […] cell suspension containing 5×10^6 cells is injected orthotopically into the right mammary fat pad of isoflurane anesthetized mice (1 site per mouse).
Pertuzumab can be purchased from Roche Pharma AG. Pertuzumab is diluted with saline (0.9%) and administered intraperitoneally with a volume of 10 ml/kg.
as §2, with “every 3 weeks intravenously into the tail vein with a volume of 5 ml/kg; and • (iii) saline (0.9%), administered once every” for “every”
Tumor volumes and side effects are monitored as described in Example 1 (see paragraph 1.1.6), except that control animals are sacrificed when the median tumor volume of the group reaches a size of approximately 470 mm^3.
The statistical evaluation of the tumor volume and the body weight is conducted on day 42 (last day of the study). Apart from this, statistical analysis was performed as described in Example 1 (see paragraph 1.1.7), with no evaluation of tumor growth after stop of treatment.

[6] = test system: HER2-overexpressing human breast cancer cell line HCC1954
Description: Day 1 was the first day, day 21 the last day of treatment and final day of analysis.
Cells are cultured in T75, T175 and 5-Layer tissue culture flasks at 37° C. and 5% CO2.
as §1

[7] = test system: HER2-overexpressing human ovarian cell line SK-OV-3; assay: SK-OV-3 subcutaneous xenograft, zongertinib with T-DXd; assay type: in vivo, NMRI-Foxn1^nu mice; conditions: day 20; tumors regressed/total (partial response); zongertinib 10 mg/kg qdx20 p.o.; T-DXd 7 mg/kg q21dx1 i.v.; alone or combined
Description: The study is performed in human ovarian cancer cell line SK-OV-3 grown as subcutaneous xenografts in NMRI-Foxn1^nu mice.
100 μl cell suspension containing 5×10^6 cells is injected subcutaneously into the right flank of mice (1 site per mouse).

trastuzumab
Regressions >30% ([1]; day 21, tumors regressed/total (partial response), zongertinib 10 mg/kg qdx21 p.o., capecitabine 400 mg/kg qdx21 p.o., trastuzumab 20 mg/kg q7dx3 i.p., alone or combined): 0/8
TGI ([1]; day 21, zongertinib 10 mg/kg qdx21 p.o., capecitabine 400 mg/kg qdx21 p.o., trastuzumab 20 mg/kg q7dx3 i.p., alone or combined): −22%
tolerability, body weight compared to controls ([1]; treatment groups of Table 16): significant weight gain compared to controls
effect on tumor growth (median tumor volumes over time) ([1]; zongertinib 10 mg/kg qdx21, capecitabine 400 mg/kg qdx21, trastuzumab 20 mg/kg q7dx3, alone or triple combination): did not even slow down tumor growth
Regressions >30% [2]: 0/10

trastuzumab deruxtecan [T-DXd, reference compound]
TGI ([3]; day 22, zongertinib 20 mg/kg qdx21 p.o., T-DXd 3 mg/kg q21dx1 i.v., alone or combined): 93%
effect on tumor growth (median tumor volumes over time) ([3]; zongertinib 10 or 20 mg/kg/day, T-DXd 3 mg/kg once, 21-day experiment): shrank tumors, but tumors started to regrow at the end of the 21-day experiment
sensitivity (dose response, cell viability) (parental NCI-N87 cells): sensitive
sensitivity (dose response, cell viability) [4]: resistant
Regressions >30% ([5]; day 42, tumors regressed/total (partial response), zongertinib 10 mg/kg qdx42 p.o., T-DXd 1 mg/kg q21dx2 i.v., pertuzumab 20 mg/kg q7dx6 i.p.): 0/8
TGI ([5]; day 42, zongertinib 10 mg/kg qdx42 p.o., T-DXd 1 mg/kg q21dx2 i.v., pertuzumab 20 mg/kg q7dx6 i.p.): 16%
effect on tumor growth (median tumor volumes over time) ([5]; zongertinib 10 mg/kg qdx42, T-DXd 1 mg/kg q21dx2, pertuzumab 20 mg/kg q7dx6): had a limited effect on tumor growth
TGI ([6]; day 21, zongertinib 20 mg/kg qdx21 p.o., T-DXd 1 mg/kg q21dx1 i.v., pertuzumab 20 mg/kg q7dx3 i.p., alone or combined): 84%
tolerability, body weight gain compared to the controls ([6]; treatment groups of Table 24): statistically significant less body weight gain
Regressions >30% ([6]; tumors regressed/total (partial response), zongertinib 20 mg/kg qdx21 p.o., T-DXd 1 mg/kg q21dx1 i.v., pertuzumab 20 mg/kg q7dx3 i.p., alone or combined): 0/8
Regressions >30% [7]: 0/8
